Results as given in publication PMC6434079, “Time-dependent inhibition of PHD2” (Bioscience Reports, 2017).

Sequences of proteins named here, by UniProt entry; tags and fusion partners are left off. Residues count along the entry.
UniProt Q9GZT9, 180-417: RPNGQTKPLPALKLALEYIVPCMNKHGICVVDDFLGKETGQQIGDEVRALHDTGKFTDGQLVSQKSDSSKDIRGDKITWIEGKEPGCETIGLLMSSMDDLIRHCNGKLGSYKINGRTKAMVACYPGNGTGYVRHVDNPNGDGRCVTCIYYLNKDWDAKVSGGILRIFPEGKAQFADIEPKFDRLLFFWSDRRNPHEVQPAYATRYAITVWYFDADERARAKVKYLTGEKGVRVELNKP

Target: PHD2 (Homo sapiens, UniProt Q9GZT9)
Conditions: read-out: Km for 2-OG, PHD2; 1 μM peptide, 1 mM ascorbic acid, 5 nM enzyme

**Q.** `O=C(O)CCC(=O)C(=O)O` [Compound 2-OG, 2-oxoglutarate] was tested. Which Km did it give?
**A.** 0.98 µM
